The values that follow come from patent US20040037843A1, “Inducing cellular immune responses to prostate cancer antigens using peptide and nucleic acid compositions” (priority 2003, published 2004).

pIC50: −log10 of the molar value. Where only a bound is given, the exact number is not on record here.

One experiment deals with HLA-A*0201 (Homo sapiens, UniProt P04439, D140Y/D185E/D98H/E176V/E277Q/G131W/G231S/I119V/I121R/I166T/I218V/L300P/L318F/N151K/N90K/P208A/P217A/Q86G/Q94H/R138H/R169H/T345S). Nature of the experiment: HLA class I binding assay, purified HLA, inhibition of 125I-labelled probe peptide. Conditions: Table XXII group headings ≦ 200 nM / > 200 nM; binding to HLA-A*0201; read-out: Binding affinity.
`CC(C)C[C@H](NC(=O)[C@H](CO)NC(=O)[C@H](CCCNC(=N)N)NC(=O)[C@@H]1CCCN1C(=O)[C@H](CCCNC(=N)N)NC(=O)[C@H](CC(C)C)NC(=O)[C@@H](N)Cc1ccccc1)C(=O)N[C@@H](CCC(N)=O)C(=O)N[C@@H](CS)C(=O)N[C@H](C(=O)O)C(C)C` [HuK2.165]: the pIC50 was at least 6.70.
Consider `CSCC[C@H](NC(=O)[C@H](CC(=O)O)NC(=O)[C@H](CC(N)=O)NC(=O)[C@H](CO)NC(=O)[C@H](CC(C)C)NC(=O)[C@H](CC(C)C)NC(=O)[C@H](Cc1c[nH]cn1)NC(=O)[C@H](CC(C)C)NC(=O)[C@@H](N)CO)C(=O)N[C@@H](CS)C(=O)N[C@@H](C)C(=O)O` [HuK2.175], for which the pIC50 is at least 6.70.

In the next experiment the test system is HLA-A2 supertype molecules (A*0201, A*0202, A*0203, A*0206, A*6802). Description: A2-supertype cross-reactive binding (number of the five alleles bound). Also on record: species or system human. Particulars: number of the five A2-supertype alleles bound.
Consider `CC(C)C[C@H](NC(=O)[C@H](Cc1ccccc1)NC(=O)[C@@H](NC(=O)[C@@H](N)C(C)C)C(C)C)C(=O)N[C@H](C(=O)N[C@@H](CC(C)C)C(=O)N[C@@H](CO)C(=O)N[C@H](C(=O)N[C@H](C(=O)N[C@@H](Cc1c[nH]c2ccccc12)C(=O)N[C@H](C(=O)O)C(C)C)[C@@H](C)O)C(C)C)[C@@H](C)O` [Peptide 63.0185], for which the “A2 Cross-Reactivity” value is 4.
As for `CC[C@H](C)[C@H](NC(=O)[C@H](Cc1ccccc1)NC(=O)[C@H](C)NC(=O)[C@H](CCCNC(=N)N)NC(=O)[C@H](CCC(=O)O)NC(=O)[C@H](CC(C)C)NC(=O)[C@H](Cc1ccccc1)NC(=O)[C@H](CCSC)NC(=O)[C@H](CC(C)C)NC(=O)[C@@H](N)CCC(N)=O)C(=O)O` [Peptide 1126.16], the “A2 Cross-Reactivity” value is given as 4.
On the same count and under the same terms, as for `CC(C)C[C@H](NC(=O)[C@H](CC(C)C)NC(=O)CNC(=O)[C@H](CC(N)=O)NC(=O)[C@H](Cc1ccc(O)cc1)NC(=O)[C@@H](NC(=O)[C@H](CC(=O)O)NC(=O)[C@H](CC(C)C)NC(=O)[C@H](C)N)C(C)C)C(=O)O` [Peptide 1177.02], the figure is 3; as for `CSCC[C@H](N)C(=O)N[C@@H](CC(C)C)C(=O)N[C@@H](CC(C)C)C(=O)N[C@@H](CCCNC(=N)N)C(=O)N[C@@H](CC(C)C)C(=O)N[C@@H](CO)C(=O)N[C@@H](CCC(=O)O)C(=O)N1CCC[C@H]1C(=O)N[C@@H](C)C(=O)N[C@@H](CCC(=O)O)C(=O)N[C@H](C(=O)O)C(C)C` [Peptide 1389.12], 3; as for `CC(C)C[C@H](NC(=O)[C@H](CC(=O)O)NC(=O)CNC(=O)[C@H](CCC(=O)O)NC(=O)[C@@H]1CCCN1C(=O)[C@H](CC(C)C)NC(=O)CN)C(=O)N[C@H](C(=O)N[C@@H](Cc1ccc(O)cc1)C(=O)N[C@H](C(=O)O)C(C)C)C(C)C` [Peptide 1389.22], 4.
In the case of `CC(C)C[C@H](NC(=O)[C@H](C)N)C(=O)N[C@@H](CO)C(=O)N[C@H](C(=O)NCC(=O)N[C@@H](CS)C(=O)N[C@H](C(=O)NCC(=O)N[C@H](C(=O)O)C(C)C)[C@@H](C)O)C(C)C` [Peptide 1418.15], the “A2 Cross-Reactivity” value is 4.
Still for that read-out and setting: the figure for `CC(C)C[C@H](NC(=O)[C@H](CO)NC(=O)[C@@H](NC(=O)[C@H](CS)NC(=O)[C@H](CCC(N)=O)NC(=O)[C@H](CC(C)C)NC(=O)[C@@H](N)CO)C(C)C)C(=O)N[C@@H](Cc1c[nH]cn1)C(=O)N[C@H](C(=O)O)C(C)C` [Peptide 1418.19] is 3.
The same measure, in the same setting: the figure for `CSCC[C@H](NC(=O)[C@H](CC(=O)O)NC(=O)[C@H](CC(N)=O)NC(=O)[C@H](CO)NC(=O)[C@H](CC(C)C)NC(=O)[C@H](CC(C)C)NC(=O)[C@@H](N)Cc1c[nH]cn1)C(=O)N[C@@H](CS)C(=O)N[C@H](C(=O)O)C(C)C` [Peptide 1418.20] is 4.
Still for that read-out and setting: as for `CSCC[C@H](NC(=O)[C@H](Cc1ccccc1)NC(=O)[C@H](CCC(=O)O)NC(=O)[C@@H](NC(=O)[C@@H](NC(=O)[C@@H](N)CCCCN)C(C)C)[C@@H](C)O)C(=O)N[C@@H](CC(C)C)C(=O)N[C@@H](CS)C(=O)N[C@H](C(=O)O)C(C)C` [Peptide 1418.21], the figure is 4; as for `CSCC[C@H](NC(=O)[C@@H](N)Cc1ccccc1)C(=O)N[C@@H](CC(C)C)C(=O)N[C@@H](CS)C(=O)N[C@@H](C)C(=O)NCC(=O)N[C@@H](CC(C)C)C(=O)N[C@@H](Cc1c[nH]c2ccccc12)C(=O)N[C@H](C(=O)O)C(C)C` [Peptide 1418.22], 4; as for `CC(C)C[C@H](NC(=O)[C@H](CC(=O)O)NC(=O)CNC(=O)[C@H](CCC(=O)O)NC(=O)[C@@H]1CCCN1C(=O)[C@@H](NC(=O)CN)[C@@H](C)O)C(=O)N[C@H](C(=O)N[C@@H](Cc1ccc(O)cc1)C(=O)N[C@H](C(=O)O)C(C)C)C(C)C` [Peptide 1418.29], 4.
For the compound `CC[C@H](C)[C@H](NC(=O)[C@H](CC(=O)O)NC(=O)[C@H](Cc1ccccc1)NC(=O)[C@@H](NC(=O)[C@H](C)N)[C@@H](C)O)C(=O)N[C@@H](CCC(=O)O)C(=O)N[C@@H](CO)C(=O)N[C@@H](CCCCN)C(=O)N[C@H](C(=O)O)C(C)C` [Peptide 1418.30], the “A2 Cross-Reactivity” value worked out at 5.
For the compound `CC(C)[C@H](NC(=O)[C@@H]1CCCN1C(=O)[C@@H](NC(=O)[C@H](C)NC(=O)CNC(=O)[C@@H](NC(=O)[C@H](CS)NC(=O)CNC(=O)[C@@H](NC(=O)[C@@H](N)CO)C(C)C)[C@@H](C)O)C(C)C)C(=O)O` [Peptide 1418.35], the “A2 Cross-Reactivity” value came out at 4.
On to `CC(C)C[C@H](NC(=O)[C@H](CO)NC(=O)[C@@H](NC(=O)[C@H](CS)NC(=O)[C@H](CCC(N)=O)NC(=O)[C@H](CC(C)C)NC(=O)[C@@H](N)CO)C(C)C)C(=O)N[C@@H](Cc1c[nH]cn1)C(=O)N[C@@H](CC(C)C)C(=O)N[C@H](C(=O)O)C(C)C` [Peptide 1418.52], for which the “A2 Cross-Reactivity” value was 5.
Turning to `CSCC[C@H](NC(=O)[C@H](CC(=O)O)NC(=O)[C@H](CC(N)=O)NC(=O)[C@H](CO)NC(=O)[C@H](CC(C)C)NC(=O)[C@@H](N)CC(C)C)C(=O)N[C@@H](CS)C(=O)N[C@@H](C)C(=O)N[C@@H](CCCNC(=N)N)C(=O)N[C@H](C(=O)O)C(C)C` [Peptide 1418.53], the “A2 Cross-Reactivity” value is 4.
For `CC[C@H](C)[C@H](N)C(=O)N[C@@H](CC(C)C)C(=O)N[C@@H](CC(C)C)C(=O)N[C@@H](CO)C(=O)N[C@H](C(=O)NCC(=O)N[C@@H](CS)C(=O)N[C@H](C(=O)NCC(=O)N[C@@H](C)C(=O)N[C@H](C(=O)O)C(C)C)[C@@H](C)O)C(C)C` [Peptide 1418.57], the “A2 Cross-Reactivity” value is recorded as 4.
Same read-out and setting: the figure for `CSCC[C@H](NC(=O)[C@H](CC(=O)O)NC(=O)[C@H](CC(N)=O)NC(=O)[C@H](CO)NC(=O)[C@H](CC(C)C)NC(=O)[C@H](CC(C)C)NC(=O)[C@H](Cc1c[nH]cn1)NC(=O)[C@H](CC(C)C)NC(=O)[C@@H](N)CO)C(=O)N[C@@H](CS)C(=O)N[C@H](C(=O)O)C(C)C` [Peptide 1418.66] is 3; for `CSCC[C@H](NC(=O)[C@H](CC(=O)O)NC(=O)[C@H](CC(N)=O)NC(=O)[C@H](CO)NC(=O)[C@H](CC(C)C)NC(=O)[C@H](CC(C)C)NC(=O)[C@@H](N)Cc1c[nH]cn1)C(=O)N[C@@H](CS)C(=O)N[C@@H](C)C(=O)N[C@@H](CCCNC(=N)N)C(=O)N[C@H](C(=O)O)C(C)C` [Peptide 1418.67] it is 4; for `CC[C@H](C)[C@H](NC(=O)[C@H](CO)NC(=O)[C@@H](NC(=O)CNC(=O)[C@H](CCC(=O)O)NC(=O)[C@@H]1CCCN1C(=O)[C@@H]1CCCN1C(=O)[C@H](Cc1ccccc1)NC(=O)[C@H](CC(C)C)NC(=O)[C@H](C)N)C(C)C)C(=O)O` [Peptide 1419.6] it is 3.
Still for that read-out and setting: as for `CSCC[C@H](NC(=O)[C@H](CC(=O)O)NC(=O)[C@H](CC(N)=O)NC(=O)[C@H](CO)NC(=O)[C@H](CC(C)C)NC(=O)[C@H](CC(C)C)NC(=O)[C@@H](N)Cc1c[nH]cn1)C(=O)N[C@@H](CS)C(=O)N[C@@H](C)C(=O)N[C@@H](CCCNC(=N)N)C(=O)N[C@@H](C)C(=O)O` [Peptide 1419.15], the figure is 4; as for `CC[C@H](C)[C@H](NC(=O)[C@H](Cc1c[nH]c2ccccc12)NC(=O)[C@@H](NC(=O)[C@@H](NC(=O)[C@H](CO)NC(=O)[C@H](CC(C)C)NC(=O)[C@@H](NC(=O)[C@H](CC(C)C)NC(=O)[C@H](Cc1ccccc1)NC(=O)[C@@H](NC(=O)[C@@H](N)C(C)C)C(C)C)[C@@H](C)O)C(C)C)[C@@H](C)O)C(=O)O` [Peptide 1419.25], 3.
Same read-out and setting: the figure for `CC(C)C[C@H](NC(=O)[C@@H](N)Cc1ccccc1)C(=O)N[C@@H](CC(N)=O)C(=O)N[C@@H](CCC(=O)O)C(=O)N[C@@H](CO)C(=O)N[C@@H](Cc1ccc(O)cc1)C(=O)N[C@@H](CCCCN)C(=O)N[C@@H](Cc1c[nH]cn1)C(=O)N[C@@H](CCC(=O)O)C(=O)N[C@@H](CCC(N)=O)C(=O)N[C@H](C(=O)O)C(C)C` [Peptide 1419.55] is 4.
Take `CC(C)C[C@H](NC(=O)[C@H](CC(C)C)NC(=O)[C@H](Cc1c[nH]cn1)NC(=O)[C@H](CC(C)C)NC(=O)[C@H](CO)NC(=O)[C@@H](NC(=O)[C@H](CS)NC(=O)[C@H](CCC(N)=O)NC(=O)[C@H](CC(C)C)NC(=O)[C@@H](N)CO)C(C)C)C(=O)O` [Peptide 1419.66]: the “A2 Cross-Reactivity” value is recorded as 4.

Staying with this experiment, now noted: number of the five A2 supertype alleles bound at <200nM.
In the case of `CC(C)C[C@H](NC(=O)[C@H](CC(=O)O)NC(=O)[C@@H](NC(=O)[C@H](CS)NC(=O)[C@H](CCC(N)=O)NC(=O)[C@H](CC(C)C)NC(=O)[C@@H](N)CCCCN)C(C)C)C(=O)N[C@@H](Cc1c[nH]cn1)C(=O)N[C@H](C(=O)N[C@H](C(=O)O)C(C)C)C(C)C` [Peptide 1419.24], the “Cross-Reactivity (<200nM)” value amounted to 3.
Same read-out and setting: as for `CC[C@H](C)[C@H](NC(=O)[C@H](Cc1c[nH]c2ccccc12)NC(=O)[C@@H](NC(=O)[C@@H](NC(=O)[C@H](CO)NC(=O)[C@H](CC(C)C)NC(=O)[C@@H](NC(=O)[C@H](CC(C)C)NC(=O)[C@@H](N)Cc1ccccc1)[C@@H](C)O)C(C)C)[C@@H](C)O)C(=O)NCC(=O)N[C@H](C(=O)O)C(C)C` [Peptide 1419.27], the figure is 5.
